# Assay results reported in paper PMC7664906 (International Journal of Molecular Sciences, 2020).
# Sequences of proteins named here, by UniProt entry; tags and fusion partners are left off. A change or cut given only in a name is not applied to a line headed by its entry.
# UniProt P0DPD6: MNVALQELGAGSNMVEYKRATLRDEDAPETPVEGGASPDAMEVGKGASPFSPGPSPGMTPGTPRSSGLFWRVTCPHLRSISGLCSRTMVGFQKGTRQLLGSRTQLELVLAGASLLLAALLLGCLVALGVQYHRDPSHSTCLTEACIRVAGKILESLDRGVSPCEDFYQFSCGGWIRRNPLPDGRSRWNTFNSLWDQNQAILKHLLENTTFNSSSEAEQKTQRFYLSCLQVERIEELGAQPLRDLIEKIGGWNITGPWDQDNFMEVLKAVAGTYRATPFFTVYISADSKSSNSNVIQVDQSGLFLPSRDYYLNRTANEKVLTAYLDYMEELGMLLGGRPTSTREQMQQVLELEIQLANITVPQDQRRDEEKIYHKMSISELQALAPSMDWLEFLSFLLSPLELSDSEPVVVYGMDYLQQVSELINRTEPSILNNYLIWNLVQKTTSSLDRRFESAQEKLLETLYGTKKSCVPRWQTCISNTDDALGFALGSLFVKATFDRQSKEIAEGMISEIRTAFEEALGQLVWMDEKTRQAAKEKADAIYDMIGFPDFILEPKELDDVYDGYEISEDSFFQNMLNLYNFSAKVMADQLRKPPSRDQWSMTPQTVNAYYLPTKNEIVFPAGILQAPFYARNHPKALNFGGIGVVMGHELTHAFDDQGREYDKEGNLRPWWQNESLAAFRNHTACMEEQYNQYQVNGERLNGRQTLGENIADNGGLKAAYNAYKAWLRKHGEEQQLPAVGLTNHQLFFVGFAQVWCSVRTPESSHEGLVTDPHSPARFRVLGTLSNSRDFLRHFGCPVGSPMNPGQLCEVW
# Target: ECE-2 (Homo sapiens, UniProt P0DPD6)
# Assay: In vitro peptide stability to ECE-2 by HPLC
# Details: 0.25 µg ECE-2, pH 5.5 (GLP-1 also at neutral pH), 37 °C, up to 24 h, HPLC quantification, n = 2-3
smiles,measurement,value
CC[C@H](C)[C@H](NC(=O)[C@H](Cc1ccccc1)NC(=O)[C@H](CCC(=O)O)NC(=O)[C@H](CCCCN)NC(=O)[C@H](C)NC(=O)[C@H](C)NC(=O)[C@H](CCC(N)=O)NC(=O)CNC(=O)[C@H](CCC(=O)O)NC(=O)[C@H](CC(C)C)NC(=O)[C@H](Cc1ccc(O)cc1)NC(=O)[C@H](CO)NC(=O)[C@H](CO)NC(=O)[C@@H](NC(=O)[C@H](CC(=O)O)NC(=O)[C@H](CO)NC(=O)[C@@H](NC(=O)[C@H](Cc1ccccc1)NC(=O)[C@@H](NC(=O)CNC(=O)[C@H](CCC(=O)O)NC(=O)[C@H](C)NC(=O)[C@@H](N)Cc1c[nH]cn1)[C@@H](C)O)[C@@H](C)O)C(C)C)C(=O)N[C@@H](C)C(=O)N[C@@H](Cc1c[nH]c2ccccc12)C(=O)N[C@@H](CC(C)C)C(=O)N[C@H](C(=O)N[C@@H](CCCCN)C(=O)NCC(=O)N[C@@H](CCCNC(=N)N)C(N)=O)C(C)C,In vitro peptide degradation by / resistance to ECE-2 (in words),extensive peptide degradation
